# Measurements reported in ChEMBL document CHEMBL5528038, “Discovery of 2,3-Diaminoindole Derivatives as a Novel Class of NOD Antagonists” (J Med Chem, 2024).
# Key:
# in vitro [1] = details: human, HEK-Blue hNOD1 cells
# in vitro [2] = details: human, HEK-Blue hNOD2 cells
structure (smiles),measurement,setting,value
Cc1ccc(S(=O)(=O)n2c(NC(C)(C)C)c(N3CCN(C)CC3)c3ccccc32)cc1,"viability at 18 h, 25 µM",in vitro [1],≥ 80%
same,"viability at 18 h, 25 µM",in vitro [2],≥ 80%
